This note sets out measurements from patent US8551952B2, “Methods for the treatment and prevention of ocular disorders” (Scynexis, Inc., priority 2006, dated 2013).

In the data set the test system is chorio-allantoic membranes (CAM) of fertilized chicken eggs. The note with it: for Classification: HET-CAM classification of irritation potential; for Coagulation / Haemorhage / Lysis: HET-CAM score, approximately 5 minutes incubation; for Total Score: HET-CAM, sum of scores, average across eggs.

Consider “3-[2-(4-hydroxypiperidin-1-yl)ethoxy]cyclosporin [J]”, for which the Classification result was “Slightly irritant”, the Coagulation came out at 0, the Haemorhage was 0 and the Lysis worked out at 3. The “Total Score” value stood at 3.0.

“3-[2-(morpholin-4-yl)ethoxy]cyclosporin [F]”: the Classification entry was “Slightly irritant”, the Coagulation came out at 0, the Haemorhage came out at 0 and the Lysis is 3. In addition, the “Total Score” value is recorded as 3.0.
